Experimental data reported in patent US8921559B2, “4-substituted-cyclohexylamino-4-piperidinyl-acetamide antagonists of CCR2” (Janssen Pharmaceutica NV, priority 2010, dated 2014).
Counter-ions that a name gives are not always drawn.

Sequences of proteins named here, by UniProt entry; tags and fusion partners are left off. A line that says so, or that is headed by a name, gives the form on record, which may keep a tag or linker.
UniProt P41597, other isoform, or with tags, fused parts or gaps isoform P41597-2: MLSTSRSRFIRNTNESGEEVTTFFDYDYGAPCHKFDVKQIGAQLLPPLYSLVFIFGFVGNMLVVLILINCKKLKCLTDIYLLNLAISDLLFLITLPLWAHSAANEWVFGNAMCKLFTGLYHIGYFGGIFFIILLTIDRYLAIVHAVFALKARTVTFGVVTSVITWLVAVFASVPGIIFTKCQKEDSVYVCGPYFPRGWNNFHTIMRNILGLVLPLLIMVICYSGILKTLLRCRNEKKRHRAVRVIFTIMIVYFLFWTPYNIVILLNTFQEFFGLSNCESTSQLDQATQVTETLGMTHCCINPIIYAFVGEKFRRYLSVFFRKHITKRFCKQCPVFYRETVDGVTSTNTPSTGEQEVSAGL

The compounds below were run against CCR2 (Homo sapiens (Human), UniProt P41597) (assay: MCP-1 Receptor Binding Assay in THP-1 Cells). Settings: 0.5 nM 125I labeled MCP-1, 2 hours at 30° C., average of the two most similar values where more than one IC50, dihydrochloride, read-out: Inhibition of MCP-1 Binding IC50 CCR2 Binding.
Experimental: Compounds of the invention were subjected to various representative biological tests. The results of these tests are intended to illustrate the invention in a non-limiting fashion. MCP-1 Receptor Binding Assay in THP-1 Cells Human monocytic cell line THP-1 cells were obtained from American Type Culture Collection (Manassas, Va., USA). The THP-1 cells were grown in RPMI-1640 (RPMI: Roswell Park Memorial Institute Medium-cell culture growth media) supplemented with 10% fetal bovine serum in a humidified 5% CO2 atmosphere at 37° C. The cell density was maintained between […].
THP-1 (cells were incubated with 0.5 nM ^125I labeled MCP-1 (Perkin-Elmer Life Sciences, Inc. Boston, Mass.) in the presence of varying concentrations of either unlabeled MCP-1 (R & D Systems, Minneapolis, Minn.) or test compound for 2 hours at 30° C. in a 96 well plate. Cells were then harvested onto a filter plate, dried, and 20 μL of Microscint 20 was added to each well. Plates were counted in a TopCount NXT, Microplate Scintillation & Luminescence Counter (Perkin-Elmer Life Sciences, Inc. Boston, Mass.). Blank values (buffer only) were subtracted from all values and drug treated values were compared to vehicle treated values. 1 μM cold MCP-1 was used for nonspecific binding.
Table 1 lists IC50 values for inhibition of MCP-1 binding to CCR2 obtained for test compounds of the invention. […] Where more than one IC50 value was available, the average of the two most similar values is reported.

IC50 [µM]	Compound
0.014	NC(=O)C(N[C@H]1CC[C@H](c2c[nH]c3ccccc32)CC1)C1CCN(C(=O)/C=C/c2cc(F)cc(F)c2)CC1 (stereo partly drawn) [Example 1b, R,S-2-[4-(1H-Indol-3-yl)-trans-cyclohexylamino]-2-[1-(trans-3,5-difluorocinnamoyl)-piperidin-4-yl]-acetamide dihydrochloride]

Same assay, conditions: 0.5 nM 125I labeled MCP-1, 2 hours at 30° C., average of the two most similar values where more than one IC50, read-out: Inhibition of MCP-1 Binding IC50 CCR2 Binding

IC50 [µM]	Compound
0.025	NC(=O)C(NC1CCC(c2c[nH]c3ccccc23)CC1)C1CCN(C(=O)/C=C/c2cc(F)c(F)c(F)c2)CC1 (stereo not drawn) [Example 35, 2-[4-(1H-Indol-3-yl)-cyclohexylamino]-2-[1-(trans-3,4,5-trifluorocinnamoyl)-piperidin-4-yl]-acetamide]
0.406	NC(=O)C(N[C@H]1CC[C@@H](c2c[nH]c3ccccc32)CC1)C1CCN(C(=O)/C=C/c2cc(F)c(F)c(F)c2)CC1 (stereo partly drawn) [Example 37, R,S-2-[4-(1H-Indol-3-yl)-cis-cyclohexylamino]-2-[1-(trans-3,4,5-trifluorocinnamoyl)-piperidin-4-yl]-acetamide]
0.008	NC(=O)C(N[C@H]1CC[C@H](c2c[nH]c3ccccc32)CC1)C1CCN(C(=O)/C=C/c2cc(F)c(F)c(F)c2)CC1 (single isomer, unassigned) [Example 36, R,S-2-[4-(1H-Indol-3-yl)-trans-cyclohexylamino]-2-[1-(trans-3,4,5-trifluorocinnamoyl)-piperidin-4-yl]-acetamide]
0.013	NC(=O)C(N[C@H]1CC[C@H](c2c[nH]c3ccccc32)CC1)C1CCN(C(=O)/C=C/c2cc(F)cc(F)c2)CC1 (stereo partly drawn) [Example 1a, R,S-2-[4-(1H-Indol-3-yl)-trans-cyclohexylamino]-2-[1-(trans-3,5-difluorocinnamoyl)piperidin-4-yl]-acetamide]
0.74	NC(=O)C(N[C@H]1CC[C@@H](c2c[nH]c3ccccc32)CC1)C1CCN(C(=O)/C=C/c2cc(F)cc(F)c2)CC1 (stereo partly drawn) [Example 3, 2-[4-(1H-Indol-3-yl)-cis-cyclohexylamino]-2-[1-(trans-3,5-difluorocinnamoyl)-piperidin-4-yl]-acetamide]
